For 1 substance, portion of TACO1 that co-sediments results are on record in publication PMC11381339.

The target in this assay is uL14m, mitoribosome large subunit (mtLSU) marker (human (endogenous in HEK293T)) (UniProt Q6P1L8). Description: co-sedimentation; 0.3-1 M sucrose gradient of HEK293T mitochondrial extracts prepared in 0.6% digitonin, 100 mM KCl, 20 mM MgCl2, 20 mM HEPES pH 7.4; 152 000 x g, 3 h 10 min, 4 C; 15 fractions, SDS-PAGE and immunoblot. In general terms: In western blotting, separated proteins are transferred to a membrane and probed.

“TACO1 (translational activator of the mtDNA-encoded cytochrome c oxidase subunit 1) (from UniProt Q9BSH4 1-297) (natural protein)” showed a portion of TACO1 that co-sediments of less than 5%.
